The chains behind the UniProt entries cited, without tags or fusion partners. Where a name states a change or a piece, a line headed by the entry shows the natural chain unless it says otherwise. Residues count along the entry.
UniProt O42275, 24-633 limits assumed: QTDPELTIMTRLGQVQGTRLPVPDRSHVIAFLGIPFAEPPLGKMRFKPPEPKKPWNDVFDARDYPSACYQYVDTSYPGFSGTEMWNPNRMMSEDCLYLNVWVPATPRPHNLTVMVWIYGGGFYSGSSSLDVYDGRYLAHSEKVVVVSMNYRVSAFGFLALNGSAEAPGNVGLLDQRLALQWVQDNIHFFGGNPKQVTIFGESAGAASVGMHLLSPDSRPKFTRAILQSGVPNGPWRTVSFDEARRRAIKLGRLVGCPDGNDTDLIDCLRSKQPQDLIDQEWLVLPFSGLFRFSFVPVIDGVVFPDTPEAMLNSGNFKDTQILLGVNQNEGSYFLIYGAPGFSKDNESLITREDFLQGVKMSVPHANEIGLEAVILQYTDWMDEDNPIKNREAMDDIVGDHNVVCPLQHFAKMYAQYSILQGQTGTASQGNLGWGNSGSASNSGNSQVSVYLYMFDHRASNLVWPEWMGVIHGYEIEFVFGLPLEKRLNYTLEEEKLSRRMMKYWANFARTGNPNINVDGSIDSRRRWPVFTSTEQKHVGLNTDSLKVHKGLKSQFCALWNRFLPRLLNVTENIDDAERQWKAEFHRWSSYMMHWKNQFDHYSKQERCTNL
UniProt P32738: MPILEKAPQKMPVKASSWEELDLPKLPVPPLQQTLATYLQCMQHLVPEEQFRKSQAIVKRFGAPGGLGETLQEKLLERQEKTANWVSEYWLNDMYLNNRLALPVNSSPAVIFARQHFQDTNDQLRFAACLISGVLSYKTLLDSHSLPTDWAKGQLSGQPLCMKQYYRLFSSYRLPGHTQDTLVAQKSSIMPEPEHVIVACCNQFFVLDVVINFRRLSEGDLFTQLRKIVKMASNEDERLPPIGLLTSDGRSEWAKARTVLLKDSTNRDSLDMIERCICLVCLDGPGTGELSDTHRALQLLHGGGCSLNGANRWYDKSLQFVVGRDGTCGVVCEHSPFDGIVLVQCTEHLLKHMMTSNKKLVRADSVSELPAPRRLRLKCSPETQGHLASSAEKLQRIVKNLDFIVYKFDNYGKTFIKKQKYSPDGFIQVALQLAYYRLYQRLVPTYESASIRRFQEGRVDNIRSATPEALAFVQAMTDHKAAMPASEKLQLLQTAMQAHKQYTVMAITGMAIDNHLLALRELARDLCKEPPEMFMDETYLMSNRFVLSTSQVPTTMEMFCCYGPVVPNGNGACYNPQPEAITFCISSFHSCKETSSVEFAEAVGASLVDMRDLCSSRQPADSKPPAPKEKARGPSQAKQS
UniProt P22303, 32-614 limits assumed: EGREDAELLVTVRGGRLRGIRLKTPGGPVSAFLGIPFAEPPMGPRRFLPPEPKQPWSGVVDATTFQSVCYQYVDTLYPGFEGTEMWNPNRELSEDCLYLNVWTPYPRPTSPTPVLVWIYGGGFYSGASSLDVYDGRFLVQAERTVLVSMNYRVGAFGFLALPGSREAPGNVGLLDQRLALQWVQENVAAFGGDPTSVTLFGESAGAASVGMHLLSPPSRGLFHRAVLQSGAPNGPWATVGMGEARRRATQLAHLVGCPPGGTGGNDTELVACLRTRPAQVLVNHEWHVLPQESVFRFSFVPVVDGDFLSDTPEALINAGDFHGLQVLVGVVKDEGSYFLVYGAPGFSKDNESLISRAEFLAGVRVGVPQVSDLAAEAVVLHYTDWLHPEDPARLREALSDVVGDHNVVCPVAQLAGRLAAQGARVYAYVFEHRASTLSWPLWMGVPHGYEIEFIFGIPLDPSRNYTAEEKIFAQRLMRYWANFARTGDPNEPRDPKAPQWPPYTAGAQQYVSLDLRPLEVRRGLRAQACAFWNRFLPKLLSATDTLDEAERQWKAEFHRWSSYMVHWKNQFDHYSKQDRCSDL
UniProt P23795, 31-613 limits assumed: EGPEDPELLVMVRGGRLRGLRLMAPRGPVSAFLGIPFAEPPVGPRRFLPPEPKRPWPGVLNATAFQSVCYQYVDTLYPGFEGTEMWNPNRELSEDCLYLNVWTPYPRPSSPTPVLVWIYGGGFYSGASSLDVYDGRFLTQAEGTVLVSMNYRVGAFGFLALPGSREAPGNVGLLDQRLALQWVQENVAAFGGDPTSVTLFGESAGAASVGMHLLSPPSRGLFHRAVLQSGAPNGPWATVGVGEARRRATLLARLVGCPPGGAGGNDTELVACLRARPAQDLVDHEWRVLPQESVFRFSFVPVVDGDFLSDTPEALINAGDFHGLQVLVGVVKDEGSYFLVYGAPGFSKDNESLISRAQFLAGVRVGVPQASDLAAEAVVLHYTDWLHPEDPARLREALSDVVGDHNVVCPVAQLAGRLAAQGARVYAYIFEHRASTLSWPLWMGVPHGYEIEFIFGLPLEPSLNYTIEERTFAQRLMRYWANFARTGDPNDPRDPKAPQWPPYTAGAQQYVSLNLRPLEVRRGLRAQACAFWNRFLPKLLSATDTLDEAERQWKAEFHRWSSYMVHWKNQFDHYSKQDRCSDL
UniProt P12657: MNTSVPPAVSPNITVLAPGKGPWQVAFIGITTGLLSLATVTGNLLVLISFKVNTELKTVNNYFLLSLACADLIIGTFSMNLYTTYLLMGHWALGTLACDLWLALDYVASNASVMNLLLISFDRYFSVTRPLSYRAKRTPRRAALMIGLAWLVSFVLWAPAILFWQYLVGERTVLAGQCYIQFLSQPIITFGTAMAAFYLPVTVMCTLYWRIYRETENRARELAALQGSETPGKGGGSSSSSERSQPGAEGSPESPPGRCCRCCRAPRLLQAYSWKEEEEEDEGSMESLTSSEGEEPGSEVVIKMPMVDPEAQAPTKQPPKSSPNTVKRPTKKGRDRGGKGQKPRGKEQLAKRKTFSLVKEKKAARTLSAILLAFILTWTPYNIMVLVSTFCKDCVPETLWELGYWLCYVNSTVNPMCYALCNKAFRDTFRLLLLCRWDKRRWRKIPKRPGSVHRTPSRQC
UniProt P32211: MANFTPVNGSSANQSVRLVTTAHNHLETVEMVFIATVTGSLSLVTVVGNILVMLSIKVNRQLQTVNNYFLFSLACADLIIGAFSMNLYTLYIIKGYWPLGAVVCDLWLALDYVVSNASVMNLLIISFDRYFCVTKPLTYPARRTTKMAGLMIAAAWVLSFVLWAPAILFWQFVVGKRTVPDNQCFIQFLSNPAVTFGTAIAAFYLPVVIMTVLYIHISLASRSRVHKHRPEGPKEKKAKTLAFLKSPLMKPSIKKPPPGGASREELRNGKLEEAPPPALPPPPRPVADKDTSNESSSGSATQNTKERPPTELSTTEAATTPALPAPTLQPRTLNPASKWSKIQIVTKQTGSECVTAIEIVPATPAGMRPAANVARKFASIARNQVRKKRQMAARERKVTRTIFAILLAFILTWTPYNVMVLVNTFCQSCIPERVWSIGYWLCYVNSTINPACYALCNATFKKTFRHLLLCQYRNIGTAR
UniProt Q920H4: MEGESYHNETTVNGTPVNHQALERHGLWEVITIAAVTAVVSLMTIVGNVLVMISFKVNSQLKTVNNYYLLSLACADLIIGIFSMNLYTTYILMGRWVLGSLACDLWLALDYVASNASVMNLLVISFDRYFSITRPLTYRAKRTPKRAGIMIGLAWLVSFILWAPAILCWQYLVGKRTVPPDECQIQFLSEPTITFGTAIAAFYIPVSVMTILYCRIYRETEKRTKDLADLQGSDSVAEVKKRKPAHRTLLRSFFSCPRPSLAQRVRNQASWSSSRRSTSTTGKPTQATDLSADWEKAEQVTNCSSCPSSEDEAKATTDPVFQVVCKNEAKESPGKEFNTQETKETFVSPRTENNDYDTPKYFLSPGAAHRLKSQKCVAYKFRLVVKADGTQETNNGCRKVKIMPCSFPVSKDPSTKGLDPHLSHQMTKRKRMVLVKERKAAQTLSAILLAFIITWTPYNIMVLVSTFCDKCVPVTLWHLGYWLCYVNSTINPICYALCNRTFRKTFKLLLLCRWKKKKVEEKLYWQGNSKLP
UniProt Q9ERZ3: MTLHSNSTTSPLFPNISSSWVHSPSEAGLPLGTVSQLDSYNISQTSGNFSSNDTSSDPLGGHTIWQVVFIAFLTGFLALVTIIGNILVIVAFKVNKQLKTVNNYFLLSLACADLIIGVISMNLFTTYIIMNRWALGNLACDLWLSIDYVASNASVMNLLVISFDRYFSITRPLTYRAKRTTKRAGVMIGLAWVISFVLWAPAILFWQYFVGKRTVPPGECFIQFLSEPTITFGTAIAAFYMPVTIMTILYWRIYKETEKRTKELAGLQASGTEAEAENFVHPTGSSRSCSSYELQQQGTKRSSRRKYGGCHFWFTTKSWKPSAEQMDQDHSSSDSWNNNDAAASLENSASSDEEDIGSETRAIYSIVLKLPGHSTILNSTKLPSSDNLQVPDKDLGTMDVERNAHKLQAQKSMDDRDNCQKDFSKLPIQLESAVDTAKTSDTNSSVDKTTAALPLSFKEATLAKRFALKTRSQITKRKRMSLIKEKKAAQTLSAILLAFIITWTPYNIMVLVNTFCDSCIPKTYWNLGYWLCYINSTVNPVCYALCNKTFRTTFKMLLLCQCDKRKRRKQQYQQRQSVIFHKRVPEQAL
UniProt Q9ERZ4: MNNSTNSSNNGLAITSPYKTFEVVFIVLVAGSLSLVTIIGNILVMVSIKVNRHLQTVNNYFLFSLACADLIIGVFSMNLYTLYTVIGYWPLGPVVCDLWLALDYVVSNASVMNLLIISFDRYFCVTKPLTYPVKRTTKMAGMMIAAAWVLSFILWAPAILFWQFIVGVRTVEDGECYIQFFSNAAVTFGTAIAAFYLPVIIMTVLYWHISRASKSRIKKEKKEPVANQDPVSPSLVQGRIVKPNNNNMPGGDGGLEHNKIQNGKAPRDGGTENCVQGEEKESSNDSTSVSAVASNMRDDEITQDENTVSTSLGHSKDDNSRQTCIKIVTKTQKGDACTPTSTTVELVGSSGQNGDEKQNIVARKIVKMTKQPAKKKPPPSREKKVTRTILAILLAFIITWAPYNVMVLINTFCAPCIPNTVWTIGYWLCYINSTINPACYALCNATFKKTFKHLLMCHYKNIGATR

According to BindingDB's records for 2913310:

How the values were obtained:
Acetylcholinesterase [1] = biological target: Acetylcholinesterase (Electrophorus electricus, UniProt O42275); experiment: ChEBML_27967
[2] = biological target: Choline O-acetyltransferase (Rattus norvegicus, UniProt P32738); experiment: ChEBML_27371
Acetylcholinesterase [3] = biological target: Acetylcholinesterase (Homo sapiens, UniProt P22303); experiment: ChEBML_28161
Acetylcholinesterase [4] = biological target: Acetylcholinesterase (Bos taurus, UniProt P23795); experiment: ChEBML_27812
[5] = biological target: T1, Muscarinic acetylcholine receptor M1/M2/M3/M4/M5 (UniProt P12657+P32211+Q920H4+Q9ERZ3+Q9ERZ4); experiment: ChEBML_138643
[6] = biological target: T1, Muscarinic acetylcholine receptor M1/M2/M3/M4/M5; experiment: Compound was tested for the binding affinity towards muscarinic acetylcholine receptor in mouse brain membrane

Structure (SMILES)	pIC50 (Acetylcholinesterase [1])	pIC50 [2]	pIC50 (Acetylcholinesterase [3])	further results
Cn1cc[n+](COCc2cccc3ccccc23)c1CN=O	5.15	5.15		
O=NCc1cccc[n+]1COCCOC[n+]1ccccc1CN=O	3.92		3.47	
COC[n+]1ccn(C)c1CN=O	3.54	3.54	3.87	pIC50 (Acetylcholinesterase [4]): 3.86; pIC50 [5]: 3.00
Cn1cc[n+](COCCCc2ccccc2)c1CN=O		4.82		
CC(OC[n+]1ccn(C)c1CN=O)C(C)(C)C (configuration not stated)		4.80		
COC[n+]1c(CN=O)n(C)c2ccccc21	3.74		3.70	
Cn1c(CN=O)[n+](C)c2ccccc21			3.91	
NC(=O)c1cc[n+](COC[n+]2ccccc2CN=O)cc1		3.10		pIC50 [6]: 3.80
C[n+]1ccccc1CN=O				pIC50 [5]: 3.77

pIC50: −log10 of the molar value.
